Target: human activated kallikrein enzyme (Homo sapiens (Human), UniProt P03952)
Assay: Plasma kallikrein inhibition assay with fluorogenic peptide substrate, 500 pM activated kallikrein format
Format: biochemical
Conditions: read-out: Primary Dose Response Assay: Average EC50, 300 uM Pro-Phe-Arg-7-amido-4-methylcoumarin substrate, 30 min preincubation, 10 min reaction at RT

Sequences of proteins named here, by UniProt entry; tags and fusion partners are left off. Residues count along the entry.
UniProt P03952, 391-638 limits assumed: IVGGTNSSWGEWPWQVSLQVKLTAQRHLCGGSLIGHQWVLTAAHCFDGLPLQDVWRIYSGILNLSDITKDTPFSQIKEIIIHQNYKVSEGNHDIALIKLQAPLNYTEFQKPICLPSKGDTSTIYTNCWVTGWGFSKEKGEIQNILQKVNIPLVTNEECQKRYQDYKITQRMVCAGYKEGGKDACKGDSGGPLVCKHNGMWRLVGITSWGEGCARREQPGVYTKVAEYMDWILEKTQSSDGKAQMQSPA
UniProt P03952, 20-390 partner limits assumed: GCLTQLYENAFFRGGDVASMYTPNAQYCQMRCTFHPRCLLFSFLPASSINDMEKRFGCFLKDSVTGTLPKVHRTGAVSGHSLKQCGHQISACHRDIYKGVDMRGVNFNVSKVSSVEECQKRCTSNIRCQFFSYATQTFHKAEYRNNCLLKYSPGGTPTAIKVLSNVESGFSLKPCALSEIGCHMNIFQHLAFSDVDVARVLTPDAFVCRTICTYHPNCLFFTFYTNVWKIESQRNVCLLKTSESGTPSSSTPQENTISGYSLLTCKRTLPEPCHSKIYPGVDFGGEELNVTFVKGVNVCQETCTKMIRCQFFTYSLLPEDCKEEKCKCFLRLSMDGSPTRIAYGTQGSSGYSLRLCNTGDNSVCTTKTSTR

- EC50: 0.1 to 2 µM
SMILES: O=C(NCc1cc2c(cn1)OCCO2)c1cn(Cc2cn3cc(C4CC4)ccc3n2)nn1

Source: patent publication US11787796B2, “Plasma Kallikrein inhibitors and uses thereof” (Takeda Pharmaceutical Company Limited, priority 2019, dated 2023)
